This note sets out measurements from US20180273528A1 (LES LABORATOIRES SERVIER, priority 2015, published 2018).

For the assay, the target named is T1, CLK1 (Homo sapiens, UniProt P49759).
T1 construct: full-length human kinases from Carna Biosciences; purchased Carna Biosciences 04-126
T1 sequence (P49759 1-526 isoform P49759-3): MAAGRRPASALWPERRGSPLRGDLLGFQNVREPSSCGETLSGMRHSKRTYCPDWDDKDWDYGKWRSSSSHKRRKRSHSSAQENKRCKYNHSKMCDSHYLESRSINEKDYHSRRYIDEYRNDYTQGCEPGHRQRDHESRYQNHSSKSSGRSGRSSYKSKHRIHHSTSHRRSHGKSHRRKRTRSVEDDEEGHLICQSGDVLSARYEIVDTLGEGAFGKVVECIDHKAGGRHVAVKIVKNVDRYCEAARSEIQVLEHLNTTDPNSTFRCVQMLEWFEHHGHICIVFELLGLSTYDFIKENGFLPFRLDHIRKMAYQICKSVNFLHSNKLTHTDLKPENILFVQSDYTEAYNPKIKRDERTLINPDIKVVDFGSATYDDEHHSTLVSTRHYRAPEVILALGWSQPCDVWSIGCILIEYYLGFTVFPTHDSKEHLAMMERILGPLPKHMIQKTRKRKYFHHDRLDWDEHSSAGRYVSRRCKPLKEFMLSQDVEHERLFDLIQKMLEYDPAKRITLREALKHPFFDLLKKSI
The experiment in a line: Kinase TR-FRET assay, CLK1. It is filed as biochemical. The conditions noted are these: full-length human kinase, 10 μM ATP. How it is done:
Inhibition of the enzymatic activity of human kinases was evaluated in a Time-Resolved Fluorescence Resonance Energy Transfer (TR-FRET) assay in 384-well reaction plates. […] Test compounds of the invention were added in reaction buffer at a range of concentrations from 0.1 nM to 30 μM. Following addition of EDTA (Sigma E7889, 10 mM) to stop the reaction, Europium-labelled mouse monoclonal antibody recognizing phospho-Thr232 in MBP (Perkin Elmer TRF0201, 1 nM) was added.

Broadly, the IC50 is the concentration that inhibits the measured activity by half. A lower IC50 goes with higher potency.

Turning to `Cc1nc2ccc(-c3cc(N)nc(N)c3)nc2n1C(C)C` [Example 53, 4-[2-methyl-3-(propan-2-yl)-3H-imidazo[4,5-b]pyridin-5-yl]pyridine-2,6-diamine], the IC50 was determined as 0.02 µM.
